Three molecules from patent US8030025B2, “Antibodies directed to angiopoietin-1 and angiopoietin-2 and uses thereof” (Amgen Inc., dated 2011) can be followed below.

One assay concerns the target Cyno Ang1 (cynomolgus monkey, UniProt A0A2K5VW43). Briefly: neutralization ELISA; coated angiopoietin vs Tie2-Fc.
Assay [1] has as its target biotinylated human angiopoietin 1 (human, UniProt Q15389, biotin). Briefly: HTRF neutralization; biotin-hAng1 vs huTie-2-Fc-APC.
For assay [2], the target named is biotinylated human angiopoietin 2 (human, UniProt O15123, biotin). Briefly: HTRF neutralization; biotin-hAng2 vs huTie-2-Fc-APC.

B1: H4L11 (IgG2) (antibody, V domains shown)
VH: EVQLVQSGGGVVQPGRSLRLSCAASGFTFSSYGMHWVRQAPGKGLEWVSYISSSGSTIYYADSVKGRFTISRDNAKNSLYLQMNSLRAEDTAVYYCARDLLDYDLLTGYGYWGQGTLVTVSS
VL: not shown
For B1, the IC50 in the assay with Cyno Ang1 turned out to be 0.014 µM.

B2: H5L1 (antibody, V domains shown)
VH: EVQLVQSGGGVVQPGRSLRLSCAASGFTFSSYGMHWVRQAPGKGLEWVSYISSSGSTIYYADSVKGRFTISRDNAKNSLYLQMNSLRAEDTAVYYCARDLLDYDIWTGYGYWGQGTLVTVSS
VL: not shown
With B2, in assay [1], half-maximal inhibition (IC50) required 0.0017 µM and the IC90 was 0.024 µM. This molecule also returned a concentration for an effect of 90% (IC90) in assay [2] of 0.00029 µM.

B3: H5L12 (antibody, V domains shown)
VH: EVQLVQSGGGVVQPGRSLRLSCAASGFTFSSYGMHWVRQAPGKGLEWVSYISSSGSTIYYADSVKGRFTISRDNAKNSLYLQMNSLRAEDTAVYYCARDLLDYDIWTGYGYWGQGTLVTVSS
VL: not shown
In assay [1], B3 had an IC50 of 0.014 µM and an IC90 of 0.159 µM. Also, the 90% effect level in assay [2] (IC90) was put at 0.00031 µM.
